In one assay the target is T1, recombinant human Gal-3 (Homo sapiens, UniProt P17931).
T1 construct: shifts of whole molecule of Gal-3 (Gal-3 FL); made in house; host or cells: E. coli BL21 (DE3)
As to the kind of experiment: 1H-15N HSQC NMR shifts of 15N-labeled Gal-3 on compound addition. In kind it is binding. The note with it: C-terminal CRD S-face (Amino-acids 114-245). As for the experimental part:
Heteronuclear ^15N NMR spectroscopy was used to evaluate the interaction of compounds described herein with galectin molecules, including but not limited to Gal-3, to assess the interaction residues on the Gal-3 molecule.
NMR experiments were carried out at 30° C. on Bruker 600 MHz, 700 MHz or 850 MHz spectrometers equipped with H/C/N triple-resonance probes and x/y/z triple-axis pulse field gradient units. […] Raw data were converted and processed by using NMRPipe and were analyzed by using NMRview.

The chains behind the UniProt entries cited, without tags or fusion partners. Where a name states a change or a piece, a line headed by the entry shows the natural chain unless it says otherwise.
UniProt P17931, whole entry: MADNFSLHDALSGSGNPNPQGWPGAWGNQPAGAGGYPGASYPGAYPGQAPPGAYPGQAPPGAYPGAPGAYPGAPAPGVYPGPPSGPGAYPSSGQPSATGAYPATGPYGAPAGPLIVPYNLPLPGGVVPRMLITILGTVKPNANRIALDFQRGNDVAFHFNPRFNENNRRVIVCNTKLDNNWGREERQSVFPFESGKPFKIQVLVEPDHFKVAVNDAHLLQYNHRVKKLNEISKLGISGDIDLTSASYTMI
UniProt O00214: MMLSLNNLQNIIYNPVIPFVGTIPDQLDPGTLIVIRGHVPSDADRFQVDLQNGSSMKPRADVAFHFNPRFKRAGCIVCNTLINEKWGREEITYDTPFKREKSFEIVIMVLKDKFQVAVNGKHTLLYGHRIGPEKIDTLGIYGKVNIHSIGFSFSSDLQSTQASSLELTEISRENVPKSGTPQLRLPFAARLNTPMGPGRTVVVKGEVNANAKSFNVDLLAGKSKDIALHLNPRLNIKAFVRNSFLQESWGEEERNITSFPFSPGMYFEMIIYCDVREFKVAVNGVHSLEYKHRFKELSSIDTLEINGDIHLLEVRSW

The target of assay [1] is galectin 8 interaction with integrin αMβ2 (Homo sapiens, UniProt O00214). The note with it: ELISA, FIG. 8E. The source says:
Activated ELISA plate is coated with αMβ2 integrin. Gal-3 binding is monitored with anti-Gal-3 antibody conjugated with FITC. Positive signal of FITC represent no inhibition while reduced signal indicate inhibition.
In general terms: ELISA stands for enzyme-linked immunosorbent assay.

For the compound `OC[C@H]1O[C@@H](S[C@@H]2O[C@H](CO)[C@H](O)[C@H](n3cc(-c4cccc(F)c4)nn3)[C@H]2O)[C@H](O)[C@@H](n2cc(-c3cccc(F)c3)nn2)[C@H]1O` [TD-139], on recombinant human Gal-3, the “Max 15N NMR shift” value was found to be 0.4 ppm. In addition, the “inhibition of galectin 8 interaction with integrin αMβ2” value in assay [1] was “inhibited”.

The record behind these values is patent US12377102B2, “Compounds for the prevention and treatment of medical disorders and uses thereof” (GALECTIN SCIENCES, LLC, priority 2017, dated 2025).
